The values that follow are results of earlier work, collected in patent US20240335383A1, “NANOPARTICULATE FORMULATION” (NewImmune II, LLC, priority 2021, published 2024).

The conditions of data set [1]: cited from earlier work.
The conditions of data set [2]: cited from earlier work. The source holds these as a separate data set.
The conditions of data set [3]: human, in vivo, sc; cited from earlier work.

As to “IL-2: cytokine interleukin-2; approved in recombinant form as aldesleukin, sold as Proleukin”, in data set [1], the in vivo half-life was under 10 min. For the same substance, in data set [2] (rat, in vivo, sc), the “dose with hepatic abnormalities (increases in aspartate aminotransferase and bilirubin)” value is on record as 0.3 mg/kg/day; the “doses with slight decreases in red blood cell counts (including hematocrit and hemoglobin)” value was at least 0.1 mg/kg/day; the “time to reversal of most clinical and histopathologic findings after termination of treatment” value is on record as at most 4 weeks; the “white blood cell counts” value is given as “increased in a dose-dependent manner”. In addition, the “doses not tolerated, resulting in death or moribund termination by Day 7” value in data set [2] (rats, subcutaneous) is on record as at least 1 mg/kg/day. Further, in data set [3], the systemic exposure entry is “minimal systemic exposure”.
